The target in this test is type I angiotensin II receptor (AT1), bovine (bovine) (UniProt P25104). Briefly: cell-based or functional assay.

Sequences of proteins named here, by UniProt entry; tags and fusion partners are left off.
UniProt P25104, whole entry: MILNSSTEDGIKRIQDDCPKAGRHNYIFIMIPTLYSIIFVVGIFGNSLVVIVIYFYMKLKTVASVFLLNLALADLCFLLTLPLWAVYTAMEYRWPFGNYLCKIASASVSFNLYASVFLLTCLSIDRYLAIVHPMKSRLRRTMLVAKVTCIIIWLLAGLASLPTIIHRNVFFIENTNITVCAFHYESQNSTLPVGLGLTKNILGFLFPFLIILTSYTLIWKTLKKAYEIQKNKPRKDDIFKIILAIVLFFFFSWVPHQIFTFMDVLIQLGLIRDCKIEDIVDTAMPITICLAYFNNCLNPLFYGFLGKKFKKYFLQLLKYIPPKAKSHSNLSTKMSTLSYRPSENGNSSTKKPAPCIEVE

Substance “human angiotensin II (manufactured by Bachem) (from UniProt P01019 25-476) (peptide)” registered a Renilla reniformis luciferase activity (CRE reporter), host GBCRC6 with pAGal9-AT1 of 132 fold.

These data come from patent US20070105096A1.
